Measured values as given in patent US9493485B2, “Spirocyclic dihydro-thiazine and dihydro-oxazine BACE inhibitors, and compositions and uses thereof” (Imago Pharmaceuticals, Inc., priority 2012, dated 2016).

Protein sequences, listed by entry. Tags and fused reporters are not part of them. Residues count along the entry.
UniProt P56817, 46-501: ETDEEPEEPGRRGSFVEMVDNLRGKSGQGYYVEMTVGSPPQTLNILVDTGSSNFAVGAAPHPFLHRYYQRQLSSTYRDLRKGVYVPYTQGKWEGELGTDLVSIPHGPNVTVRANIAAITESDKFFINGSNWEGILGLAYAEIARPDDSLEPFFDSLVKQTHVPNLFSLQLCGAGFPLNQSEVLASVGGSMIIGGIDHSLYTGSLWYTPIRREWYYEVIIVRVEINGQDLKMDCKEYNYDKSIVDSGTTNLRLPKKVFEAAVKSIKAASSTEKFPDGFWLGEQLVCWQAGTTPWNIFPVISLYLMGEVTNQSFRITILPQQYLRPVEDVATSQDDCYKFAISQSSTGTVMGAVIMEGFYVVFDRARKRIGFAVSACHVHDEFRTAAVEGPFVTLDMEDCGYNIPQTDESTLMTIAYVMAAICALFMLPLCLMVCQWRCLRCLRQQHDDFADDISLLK

Biological target: BACE1 (Homo sapiens (Human), UniProt P56817)
Experiment: BACE1 FP assay
Assay type: biochemical
Settings: pH 4.5
Description: BACE1 activity can be assessed in an AlphaScreen® assay. Compounds to be assessed (e.g. compounds as described in the above examples) are serially diluted 1:4 in DMSO, then plated by diluting 10 μL of compound with 40 μl of assay buffer (1×PBS, 0.01% Tween-20, pH 7.0, 0.05% BSA). The diluted compound is transferred (4 μL per well) to a 386 well assay plate and 4 μL of BACE1 enzyme ([…]) is added and incubated for 15 minutes. This assay uses a probe that is a BACE1 binding sight ligand linked to biotin, which can be displaced by test compound dependent on compound binding affinity. This of biotinylated probe (4 μL) is added and incubated for 1 hour, followed with 4 μL of donor and acceptor bead mixture and incubated for 2 hours. The fluorescent signal is read on a plate reader and the value as a function of compound concentration is used to determine the IC50. Compounds are also assessed for BACE1 and Cathepsin D activity using an FP Assay. Compounds to be assessed (e.g. compounds as described in the above examples) are serially diluted 1:3 with DMSO and each concentration point is transferred to a 96 well plate, 6 μL per well, followed by addition of 194 μL of assay buffer (100 mM sodium acetate, pH 4.5 with 0.001% Tween-20). […]

COc1cnc(C(=O)Nc2ccc(F)c(C3(C)N=C(N)OC4(CCC4)C3(F)F)c2)cn1 (stereo not shown) [Compound 9-164, N-(3-(6-amino-9,9-difluoro-8-methyl-5-oxa-7-azaspiro[3.5]non-6-en-8-yl)-4-fluorophenyl)-5-methoxypyrazine-2-carboxamide]
IC50: 0.464 µM
